According to patent US9255100B2 (BAYER INTELLECTUAL PROPERTY GMBH, priority 2010, dated 2016):

Biological target: T1, N-terminally GST-tagged human full length recombinant Mps-1 kinase (Homo sapiens, UniProt P33981)
T1 construct: N-terminally GST-tagged human full length recombinant Mps-1 kinase; purchased Invitrogen, Karslruhe, Germany PV4071
T1 sequence (P33981 1-857): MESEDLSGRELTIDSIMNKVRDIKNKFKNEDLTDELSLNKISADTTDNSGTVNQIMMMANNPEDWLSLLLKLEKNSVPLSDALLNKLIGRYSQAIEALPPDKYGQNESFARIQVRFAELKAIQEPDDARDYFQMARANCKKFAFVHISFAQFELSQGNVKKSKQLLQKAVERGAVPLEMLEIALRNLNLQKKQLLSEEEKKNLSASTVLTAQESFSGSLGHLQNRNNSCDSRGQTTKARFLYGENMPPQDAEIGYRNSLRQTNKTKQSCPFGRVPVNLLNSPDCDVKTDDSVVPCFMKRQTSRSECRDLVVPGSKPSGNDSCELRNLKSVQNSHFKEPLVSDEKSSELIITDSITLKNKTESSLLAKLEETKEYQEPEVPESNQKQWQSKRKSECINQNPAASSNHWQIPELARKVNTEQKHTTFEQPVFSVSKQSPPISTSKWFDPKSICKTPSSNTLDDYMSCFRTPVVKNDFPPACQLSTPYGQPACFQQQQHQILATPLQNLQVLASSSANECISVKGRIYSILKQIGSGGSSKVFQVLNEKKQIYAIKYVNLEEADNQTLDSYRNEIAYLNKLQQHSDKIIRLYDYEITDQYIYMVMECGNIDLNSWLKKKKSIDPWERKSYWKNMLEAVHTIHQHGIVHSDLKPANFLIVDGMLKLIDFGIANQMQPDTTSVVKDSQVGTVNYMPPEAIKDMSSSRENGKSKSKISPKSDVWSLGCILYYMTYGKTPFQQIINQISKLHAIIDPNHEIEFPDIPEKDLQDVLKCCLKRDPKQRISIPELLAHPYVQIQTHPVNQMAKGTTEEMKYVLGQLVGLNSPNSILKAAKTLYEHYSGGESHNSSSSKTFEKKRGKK
Test: Mps-1 kinase assay (TR-FRET)
Type: biochemical
Conditions: Mps1 IC50 [nM], 10 μM ATP, 1 μM peptide substrate, 60 min at 22° C.
Method: The human kinase Mps-1 phosphorylates a biotinylated substrate peptide. Detection of the phosphorylated product is achieved by time-resolved fluorescence resonance energy transfer (TR-FRET) from Europium-labelled anti-phospho-Serine/Threonine antibody as donor to streptavidin labelled with cross-linked allophycocyanin (SA-XLent) as acceptor. Compounds are tested for their inhibition of the kinase activity.
N-terminally GST-tagged human full length recombinant Mps-1 kinase (purchased from Invitrogen, Karslruhe, Germany, cat. no PV4071) was used. As substrate for the kinase reaction a biotinylated peptide of the amino-acid sequence […] (C-terminus in amide form, purchased from Biosynthan GmbH, Berlin) was used. […]
The resulting mixture was incubated 1 h at 22° C. to allow the binding of the phosphorylated peptide to the anti-phospho(Ser/Thr)-Europium-antibody. Subsequently the amount of phosphorylated substrate was evaluated by measurement of the resonance energy transfer from the Europium-labelled anti-phospho(Ser/Thr) antibody to the Streptavidin-XLent. […] The “blank-corrected normalized ratio” (a Viewlux specific readout, similar to the traditional ratio of the emissions at 665 nm and at 622 nm, in which blank and Eu-donor crosstalk are subtracted from the 665 nm signal before the ratio is calculated) was taken as the measure for the amount of phosphorylated substrate.

SMILES | IC50 [nM]
CC(C)CNc1cc(-c2cccc3ncccc23)nn2c(-c3ccc(C(=O)NC4CC4)cc3)cnc12 [Example 111, N-cyclopropyl-4-{8-[(2-methylpropyl)amino]-6-(quinolin-5-yl)imidazo [1,2-b]pyridazin-3-yl} benzamide] | 6.3
Cc1cc(-c2cc(NCC(C)(C)O)c3ncc(-c4ccc(C(=O)NC5CC5)c(C)c4)n3n2)ccn1 [Example 164, N-cyclopropyl-4-{8-[(2-hydroxy-2-methylpropyl)amino]-6-(2-methylpyridin-4-yl)imidazo[1,2-b]pyridazin-3-yl}-2-methylbenzamide] | 6.3
